# Assay results reported in PubChem BioAssay AID720504 (National Center for Advancing Translational Sciences (NCATS), 2013).
# Protein sequences, listed by entry. Tags and fused reporters are not part of them.
# UniProt P53350, whole entry: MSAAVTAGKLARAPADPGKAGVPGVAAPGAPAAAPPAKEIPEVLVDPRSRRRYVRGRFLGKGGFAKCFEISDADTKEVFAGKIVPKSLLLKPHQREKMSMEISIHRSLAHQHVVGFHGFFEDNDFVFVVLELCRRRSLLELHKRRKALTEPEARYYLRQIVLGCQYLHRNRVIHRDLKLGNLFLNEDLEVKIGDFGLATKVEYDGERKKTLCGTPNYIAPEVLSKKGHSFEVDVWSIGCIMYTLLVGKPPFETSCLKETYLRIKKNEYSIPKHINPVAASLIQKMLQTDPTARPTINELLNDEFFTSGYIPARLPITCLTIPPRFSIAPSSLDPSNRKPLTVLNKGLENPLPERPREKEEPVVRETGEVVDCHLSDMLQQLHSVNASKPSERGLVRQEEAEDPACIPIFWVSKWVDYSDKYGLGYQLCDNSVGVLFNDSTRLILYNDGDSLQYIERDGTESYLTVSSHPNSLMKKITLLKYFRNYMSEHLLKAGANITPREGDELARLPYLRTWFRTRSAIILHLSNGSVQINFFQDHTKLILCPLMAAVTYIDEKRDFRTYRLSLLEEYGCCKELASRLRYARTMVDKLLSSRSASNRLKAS
# Only a part is listed here, and it is no random draw. Inconclusive results are not listed. The source made the active and inactive calls. Calls follow the shape of the dose curve; as a rule, active = well fitted inhibition curve with a large enough effect; inconclusive = small, poorly fitted or top-dose-only effect; inactive = flat fitted curve, though single readings scatter.
# Target: Serine/threonine-protein kinase PLK1 (Homo sapiens) (UniProt P53350)
# Experiment: qHTS for Inhibitors of PLK1-PDB (polo-like kinase 1 - polo-box domain): Primary Screen; also: nearly all actives have a fitted effect of over 65% in size; as to max response, negative = inhibition: series mostly up to about 57 µM
# Settings: Plk1 PBD binding of FITC phosphopeptide, fluorescence polarization
# % is scaled to controls: 0 for no effect and ±100 for the full control effect; potency is read from the fitted curve at half-maximal effect.
SMILES,"max response, negative = inhibition",Potency
COc1ccccc1OP(C)(=O)Nc1c(C)n(C)n(-c2ccccc2)c1=O (stereo unspecified),inactive: 1.92%,
O=C(OCCCN1CCCC1)C(O)(c1ccccc1)C1CCCCC1 (stereo unspecified),inactive: -15.9%,
CP(=O)(Oc1ccccc1)N1CCOC1=O (stereo unspecified),inactive: -9.06%,
CCc1ccc(OP(C)(=O)Nc2cccnc2)cc1 (stereo unspecified),inactive: -3.01%,
CCN(CC)CC(O)COC(=O)C(O)(c1ccccc1)C1CCCCC1 (stereo unspecified),inactive: -11.3%,
COc1ccc(OP(C)(=O)Nc2ccc(Br)cc2)cc1 (stereo unspecified),inactive: 7.15%,
CN(C)C(=O)c1c([N+](=O)[O-])cc([N+](=O)[O-])cc1[N+](=O)[O-],inactive: -14.8%,
CC(C)(C)c1ccc(OP(C)(=O)O)cc1,inactive: 1.62%,
COc1ccccc1OP(C)(=O)Nc1ccccc1Br (stereo unspecified),inactive: 6.45%,
CP(=O)(Nc1ccc(Cl)cc1)Oc1ccc(F)cc1 (stereo unspecified),inactive: 1.96%,
CCOC(=O)c1ccc(NP(C)(=O)Oc2ccc(Cl)cc2)cc1 (stereo unspecified),inactive: -8.37%,
CP(=O)(OC12CC3CC(CC(C3)C1)C2)OC12CC3CC(CC(C3)C1)C2,inactive: -3.68%,
Nc1ccc2c(ccc3cccnc32)n1.O=[N+]([O-])c1cc([N+](=O)[O-])c(O)c([N+](=O)[O-])c1,inactive: 0.229%,
COc1ccccc1OP(C)(=O)Nc1ccc(C)c(C)c1 (stereo unspecified),inactive: -6.96%,
COc1ccc(OP(C)(=O)Nc2ccccc2Br)cc1 (stereo unspecified),inactive: 0.589%,
Cc1cc(C)cc(OP(C)(=O)Nc2cccc(C(F)(F)F)c2)c1 (stereo unspecified),inactive: -24.1%,
CP(=O)(OCCOc1ccccc1)OCCOc1ccccc1,inactive: -12.2%,
CP(=O)(Nc1ccc(Cl)cc1Cl)Oc1ccccc1 (stereo unspecified),inactive: -20.8%,
CCCCCCCCCCCCCCCC1C[N+](C)(C)CCOP(C)(=O)O1 (stereo unspecified),inactive: 0%,
COc1ccc(OP(C)(=O)Nc2ccccn2)cc1 (stereo unspecified),inactive: -13.4%,
CN(C)CCOC(=O)C(O)(c1ccccc1)C1CCCC1 (stereo unspecified),inactive: -2.33%,
COc1ccccc1OP(C)(=O)Nc1ccc(Br)cc1 (stereo unspecified),inactive: 1.78%,

SMILES,"max response, negative = inhibition",Potency
CP(=O)(Nc1ccccn1)Oc1ccccc1 (stereo unspecified),inactive: -7.29%,
COc1ccccc1OP(C)(=O)Nc1ccc(C)cc1C (stereo unspecified),inactive: -7.39%,
CCc1ccc(OP(C)(=O)O)cc1,inactive: -6.23%,
O=[N+]([O-])c1cc([N+](=O)[O-])c(Nc2ccccn2)c([N+](=O)[O-])c1,inactive: -9.85%,
Cc1c(NP(C)(=O)Oc2ccc(C(C)C)cc2)c(=O)n(-c2ccccc2)n1C (stereo unspecified),inactive: 1.79%,
CP(=O)(Nc1ccccc1F)Oc1ccccc1 (stereo unspecified),inactive: -6.98%,
CC(C)c1ccc(OP(C)(=O)Nc2ccc(SC(F)(F)F)cc2)cc1 (stereo unspecified),inactive: 4.22%,
O=C(OCCN1CCN(CCOCc2ccccc2)CC1)C(O)(c1ccccc1)c1ccccc1,inactive: -2.35%,
CCOC(=O)c1ccc(NP(C)(=O)Oc2ccc(F)cc2)cc1 (stereo unspecified),inactive: 5.51%,
COc1ccc(OP(C)(=O)Nc2ccc(SC(F)(F)F)cc2)cc1 (stereo unspecified),inactive: -5.49%,
CP(=O)(Nc1ccccc1)Oc1ccc(F)cc1 (stereo unspecified),inactive: 0.0425%,
CCCCCOc1ccc(NP(C)(=O)Oc2ccc(Cl)cc2Cl)cc1 (stereo unspecified),inactive: -3.49%,
Cc1c([N+](=O)[O-])cc([N+](=O)[O-])c(Br)c1[N+](=O)[O-],,active: 21.2 µM
CCN(CC)CCCOC(=O)C(O)(c1ccccc1)C1CCCCC1 (stereo unspecified),inactive: -2.65%,
CN(C)CCOC(=O)C(O)(c1ccccc1)C1CCCCC1 (stereo unspecified),inactive: -3.04%,
COc1ccc(NP(C)(=O)Oc2ccccc2OC)cc1 (stereo unspecified),,active: 26.7 µM
COc1ccc(OP(C)(=O)Nc2cccc(Br)c2)cc1 (stereo unspecified),inactive: -2.51%,
Cc1c(C(c2ccc3c(c2)OCO3)c2c(C)n(C)n(-c3ccccc3)c2=O)c(=O)n(-c2ccccc2)n1C.O=[N+]([O-])c1cc([N+](=O)[O-])c(O)c([N+](=O)[O-])c1,inactive: 4.07%,
O=[N+]([O-])c1ccc(OP2(=O)COCCO2)cc1 (stereo unspecified),inactive: -9.77%,
Cc1cc(-c2cccc3ccccc23)c(C)cn1.O=[N+]([O-])c1cc([N+](=O)[O-])c(O)c([N+](=O)[O-])c1,inactive: -2.64%,
CCOP(C)(=S)SCC(=O)NC(C)(CC)C(=O)O (stereo unspecified),inactive: -0.379%,
CP(=O)(Nc1ccc(SC(F)(F)F)cc1)Oc1ccc(F)cc1 (stereo unspecified),inactive: 4.29%,

SMILES,"max response, negative = inhibition",Potency
Cc1ccccc1NP(C)(=O)Nc1ccccc1C,inactive: 0.857%,
CP(=O)(Nc1ccc2c(c1)OCCO2)Oc1ccccc1 (stereo unspecified),inactive: -4.77%,
CN(Cc1cccnc1)C(=O)COc1ccc(Cl)c(Cl)c1.O=[N+]([O-])c1cc([N+](=O)[O-])c(O)c([N+](=O)[O-])c1,inactive: -1.66%,
O=[N+]([O-])c1cc([N+](=O)[O-])c(-n2nnc3ccccc32)c([N+](=O)[O-])c1,,active: 11.9 µM
O=[N+]([O-])c1cc([N+](=O)[O-])c(-c2cnn(-c3ccccc3)c2)c([N+](=O)[O-])c1,inactive: 5.74%,
O=[N+]([O-])c1cc([N+](=O)[O-])c(Nc2nnnn2CCO)c([N+](=O)[O-])c1,inactive: -18.3%,
CC1=C2N=C(C=C3N=C(C(C)=C4[N-][C@@](C)([C@@H]5N=C1[C@](C)(CCC(=O)NC[C@@H](C)OP(=O)([O-])O[C@H]1[C@@H](O)[C@@H](n6cnc7cc(C)c(C)cc76)O[C@@H]1CO)[C@H]5CC(N)=O)[C@@](C)(CC(N)=O)[C@@H]4CCC(N)=O)[C@@](C)(CC(N)=O)[C@@H]3CCC(N)=O)C(C)(C)[C@@H]2CCC(N)=O.[C-]#N.[Co+3],inactive: -20.4%,
CP(=O)(Nc1ccc(SC(F)(F)F)cc1)Oc1ccccc1 (stereo unspecified),inactive: -5.9%,
CCCOc1ccc(NP(C)(=O)Oc2ccc(Cl)cc2)cc1 (stereo unspecified),inactive: -5.2%,
COc1ccccc1OP(C)(=O)Nc1c(C)cccc1C (stereo unspecified),inactive: -14.6%,
CN1CCCCC1COC(=O)C1(O)c2ccccc2CCc2ccccc21 (stereo unspecified),inactive: -8.14%,
CC1=NCCc2c1[nH]c1ccccc21.O=[N+]([O-])c1cc([N+](=O)[O-])c(O)c([N+](=O)[O-])c1,inactive: -5.28%,
CCOC(=O)c1ccc(NP(C)(=O)Oc2cc(C)cc(C)c2)cc1 (stereo unspecified),inactive: -6.88%,
Cc1cc(C)cc(OP(C)(=O)Nc2ccc(C)cc2C)c1 (stereo unspecified),inactive: -7.5%,
COc1ccccc1OP(C)(=O)Nc1cccc(Br)c1 (stereo unspecified),inactive: -16.9%,
Cc1ccc(C)c(NP(C)(=O)Oc2ccccc2)c1 (stereo unspecified),inactive: 1.07%,
CP(=O)(Nc1cccc(Br)c1)Oc1ccccc1 (stereo unspecified),inactive: -3.33%,
Cc1cc(C)cc(OP(C)(=O)Nc2ccccn2)c1 (stereo unspecified),inactive: 0.314%,
CCN(CC)CCCOC(=O)C(O)(c1ccccc1)c1ccccc1,inactive: -4.41%,
COc1ccccc1-c1ccccn1.O=[N+]([O-])c1cc([N+](=O)[O-])c(O)c([N+](=O)[O-])c1,inactive: -14.5%,
CC(C)(C)c1ccc(OP(C)(=O)Nc2ccc(SC(F)(F)F)cc2)cc1 (stereo unspecified),inactive: -1.88%,
Cc1cccc(C)c1OP(C)(N)=O (stereo unspecified),inactive: 9.36%,

SMILES,"max response, negative = inhibition",Potency
O=[N+]([O-])c1cc([N+](=O)[O-])c(Nc2cccnc2)c([N+](=O)[O-])c1,inactive: -25.3%,
Cc1cc(C)cc(OP(C)(N)=O)c1 (stereo unspecified),inactive: -4.14%,
COc1ccccc1OP(C)(=O)Nc1cc(Cl)ccc1C (stereo unspecified),inactive: 6.77%,
COc1ccc(OP(C)(=O)Nc2cccc(F)c2)cc1 (stereo unspecified),inactive: -2.27%,
COc1ccccc1OP(C)(=O)Nc1ccc(C)cc1 (stereo unspecified),inactive: 1.47%,
Cc1ccc(NP(C)(=O)Oc2ccccc2)c(C)c1 (stereo unspecified),inactive: -16.2%,
CCOC(=O)c1ccc(NP(C)(=O)Oc2ccccc2)cc1 (stereo unspecified),inactive: 3.11%,
CP(=O)(Nc1ccccc1Br)Oc1ccccc1 (stereo unspecified),inactive: -9.29%,
COc1ccccc1OP(C)(=O)Nc1ccccc1 (stereo unspecified),inactive: -11.2%,
CP(=S)(Nn1cnnc1)Oc1ccccc1 (stereo unspecified),inactive: -17%,
CCc1ccc(OP(C)(=O)N2CCN(c3ccc([N+](=O)[O-])cc3)CC2)cc1 (stereo unspecified),inactive: -12.7%,
CP(=O)(NC(=O)Nc1ccccc1)Oc1ccccc1 (stereo unspecified),inactive: -5.41%,
Cc1cc(C)cc(OP(C)(=O)Nc2ccc(SC(F)(F)F)cc2)c1 (stereo unspecified),inactive: -18.3%,
Cc1cccc(C)c1OP(C)(=O)Nc1ccc(SC(F)(F)F)cc1 (stereo unspecified),inactive: -7.58%,
CP(=O)(Nc1ccc(SC(F)(F)F)cc1)Oc1ccc(Cl)cc1 (stereo unspecified),inactive: -9.11%,
CP(=O)(Oc1ccccc1)OC(c1ccccc1)C(F)(F)F (stereo unspecified),inactive: 0.224%,
CP(=O)(Nc1ccccn1)Oc1ccc(Cl)cc1 (stereo unspecified),inactive: -0.749%,
CCOC(=O)c1ccc(NP(C)(=O)Oc2ccc(OC)cc2)cc1 (stereo unspecified),inactive: 4.01%,
O=[N+]([O-])c1cc([N+](=O)[O-])c(O)c([N+](=O)[O-])c1.c1ccc(Oc2ccncc2)cc1,inactive: -8.76%,
CCOP(C)(=S)SCC(=O)NC(C)C(=O)O (stereo unspecified),inactive: -3.5%,
